Drawing on article PMC4963535, “Structure-guided development of heterodimer-selective GPCR ligands” (Nature Communications, 2016), this text covers Ki for 1 compound.

The chains behind the UniProt entries cited, without tags or fusion partners.
UniProt P35462, whole entry: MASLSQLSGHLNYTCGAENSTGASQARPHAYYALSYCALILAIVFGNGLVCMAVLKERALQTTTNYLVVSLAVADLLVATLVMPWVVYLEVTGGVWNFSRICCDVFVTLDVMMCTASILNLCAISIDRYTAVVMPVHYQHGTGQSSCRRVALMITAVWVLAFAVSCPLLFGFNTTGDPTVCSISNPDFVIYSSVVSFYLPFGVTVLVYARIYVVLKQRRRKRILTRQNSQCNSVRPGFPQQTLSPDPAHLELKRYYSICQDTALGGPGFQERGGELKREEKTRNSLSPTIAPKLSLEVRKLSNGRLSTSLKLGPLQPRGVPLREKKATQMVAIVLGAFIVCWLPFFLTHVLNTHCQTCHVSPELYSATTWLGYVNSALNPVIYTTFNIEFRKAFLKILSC
UniProt O95665, whole entry: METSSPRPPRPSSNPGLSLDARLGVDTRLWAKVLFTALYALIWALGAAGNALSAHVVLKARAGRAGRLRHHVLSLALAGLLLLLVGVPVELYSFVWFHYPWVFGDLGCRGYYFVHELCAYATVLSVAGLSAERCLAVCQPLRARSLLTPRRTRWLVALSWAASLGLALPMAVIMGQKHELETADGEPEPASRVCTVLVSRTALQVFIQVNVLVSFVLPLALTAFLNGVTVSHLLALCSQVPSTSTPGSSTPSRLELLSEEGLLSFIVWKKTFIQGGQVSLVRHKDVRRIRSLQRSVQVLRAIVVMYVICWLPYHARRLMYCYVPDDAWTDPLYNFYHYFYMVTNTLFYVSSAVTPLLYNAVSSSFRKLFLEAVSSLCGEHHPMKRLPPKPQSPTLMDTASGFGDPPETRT
UniProt P21917, whole entry: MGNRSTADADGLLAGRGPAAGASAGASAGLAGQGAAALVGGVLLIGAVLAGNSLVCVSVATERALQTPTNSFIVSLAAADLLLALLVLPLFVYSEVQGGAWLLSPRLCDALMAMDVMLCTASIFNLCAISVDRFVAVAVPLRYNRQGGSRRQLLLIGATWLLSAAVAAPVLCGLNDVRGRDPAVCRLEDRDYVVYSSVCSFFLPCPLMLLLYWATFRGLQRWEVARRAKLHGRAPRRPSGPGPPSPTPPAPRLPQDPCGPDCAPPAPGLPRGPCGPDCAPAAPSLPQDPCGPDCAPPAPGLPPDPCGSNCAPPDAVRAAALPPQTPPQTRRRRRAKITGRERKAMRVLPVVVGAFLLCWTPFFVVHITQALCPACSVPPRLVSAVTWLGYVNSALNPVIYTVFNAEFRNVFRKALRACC

Assay type in all cases: binding
The target of one assay is hD3R (Homo sapiens, UniProt P35462). The experiment in a line: [3H]spiperone displacement, membranes from CHO cells stably expressing hD3R. The conditions noted are these: read-out: Ki hD3R, mean ± s.d.
The next assay deals with hNTS2R (Homo sapiens, UniProt O95665). The assay can be described thus: [3H]NT(8-13) displacement, homogenates from transiently transfected HEK 293T cells, human NTS2R. The note with it: read-out: Ki hNTS2R, mean ± s.d.
In a further assay the target is hD4.4R (Homo sapiens, UniProt P21917). The experiment in a line: [3H]spiperone displacement, membranes from CHO cells stably expressing hD4.4R. The note with it: read-out: Ki hD4.4R, mean ± s.d.

pKi: −log10 of the molar value.

For the compound `COCCNC(=O)c1ccc(-c2ccc(-n3cc(CCCCN4CCN(c5ccccc5OC)CC4)nn3)cc2)cc1`, the pKi at hD3R was 8.47; at hNTS2R, 5.38; on hD4.4R, 7.48.
